We go through two substances from patent US20230057847A1, “GLP2 RECEPTOR AGONISTS AND METHODS OF USE” (The Scripps Research Institute, priority 2019, published 2023).

The target in data set [1] is T1, mouse GLP2R (Mus musculus, UniProt Q5IXF8).
T1 sequence (Q5IXF8 1-512): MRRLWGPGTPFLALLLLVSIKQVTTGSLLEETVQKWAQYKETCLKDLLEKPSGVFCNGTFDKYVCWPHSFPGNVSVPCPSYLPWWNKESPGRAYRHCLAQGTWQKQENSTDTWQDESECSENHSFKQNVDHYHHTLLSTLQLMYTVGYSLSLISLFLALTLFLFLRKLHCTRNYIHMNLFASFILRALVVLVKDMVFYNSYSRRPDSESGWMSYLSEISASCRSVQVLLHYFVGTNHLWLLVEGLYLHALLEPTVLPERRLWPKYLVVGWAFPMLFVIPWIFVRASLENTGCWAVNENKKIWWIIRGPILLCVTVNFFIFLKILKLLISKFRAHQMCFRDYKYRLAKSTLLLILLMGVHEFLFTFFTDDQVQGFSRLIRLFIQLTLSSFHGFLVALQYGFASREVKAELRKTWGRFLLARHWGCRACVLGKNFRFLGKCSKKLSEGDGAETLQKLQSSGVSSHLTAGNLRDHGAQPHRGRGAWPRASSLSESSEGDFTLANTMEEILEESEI
Description: In vitro potency on mouse GLP2R (cAMP, 665/615 ratio). It counts as cell-based. Conditions: read-out: mGLP-2R IC50.

The conditions of data set [2]: comparison value; cited from earlier work.
For data set [3] the following is noted: comparison value; cited from earlier work. The source holds these as a separate data set.

A word on the IC50: it is the concentration needed to halve the response being measured. apraglutide [reference compound]: in data set [1], the 50% inhibitory concentration (IC50) was 0.04 nM.
As for semaglutide, the half-life in rodents in data set [2] was 8 h. Also, in data set [3], the half-life in monkey entry is reported as “approximately 50 hour”.
